Data taken from ChEMBL document CHEMBL1147248, “A new acylated oleanane triterpenoid from Couepia polyandra that inhibits the lyase activity of DNA polymerase beta” (J Nat Prod, 2003).

Biological target: DNA polymerase beta (Homo sapiens, UniProt P06746)
Assay: Inhibition of DNA polymerase beta lyase activity by deoxyribose phosphate excision assay

C=C(C)[C@@H]1CC[C@]2(C(=O)O)CC[C@]3(C)[C@H](CC[C@@H]4[C@@]5(C)CC[C@H](O)C(C)(C)[C@@H]5CC[C@]43C)[C@@H]12 [BETULINIC ACID]
IC50: 43.6 µM
